Amino acid sequences for entries named in this document (tags omitted).
UniProt P21554, whole entry: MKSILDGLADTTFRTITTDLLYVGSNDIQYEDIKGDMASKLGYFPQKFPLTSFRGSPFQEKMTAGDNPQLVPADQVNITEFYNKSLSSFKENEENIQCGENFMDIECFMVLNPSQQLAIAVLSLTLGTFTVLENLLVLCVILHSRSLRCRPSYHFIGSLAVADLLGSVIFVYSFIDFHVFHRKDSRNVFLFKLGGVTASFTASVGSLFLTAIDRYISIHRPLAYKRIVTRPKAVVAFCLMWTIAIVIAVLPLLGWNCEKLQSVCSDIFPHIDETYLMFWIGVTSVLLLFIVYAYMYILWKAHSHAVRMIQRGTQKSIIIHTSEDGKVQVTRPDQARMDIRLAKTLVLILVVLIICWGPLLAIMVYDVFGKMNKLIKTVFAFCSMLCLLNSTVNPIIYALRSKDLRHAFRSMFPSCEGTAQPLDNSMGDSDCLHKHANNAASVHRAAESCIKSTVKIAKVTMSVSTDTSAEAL

According to publication PMC3578011 (2013):

How the values were obtained:
CB1 [1] = target: T1, CB1 (Homo sapiens, UniProt P21554); test: Radioligand binding assay, cooperativity with [3H]CP55,940
CB1 [2] = target: T1, CB1; test: Radioligand binding assay, cooperativity with [3H]SR141716A

`CCCCCc1c(C(=O)NCCc2ccc(N3CCCCC3)cc2)[nH]c2ccc(Cl)cc12` [ICAM-b, 5-chloro-3-pentyl-N-(4-(piperidin-1-yl)phenethyl)-1H-indole-2-carboxamide] gave a Kb (CB1 [1]) of 470 nM and a Kb (CB1 [2]) of 832 nM.
